Here are results for one compound from patent publication US20230365546A1, “5-SUBSTITUTED INDOLE 3-AMIDE DERIVATIVES, PREPARATION METHOD AND USE THEREOF” (ORIGIANT PHARMACEUTICAL CO., LTD, priority 2020, published 2023).

Chains of the proteins cited; added tags and fusions are not shown.
UniProt Q13546, whole entry: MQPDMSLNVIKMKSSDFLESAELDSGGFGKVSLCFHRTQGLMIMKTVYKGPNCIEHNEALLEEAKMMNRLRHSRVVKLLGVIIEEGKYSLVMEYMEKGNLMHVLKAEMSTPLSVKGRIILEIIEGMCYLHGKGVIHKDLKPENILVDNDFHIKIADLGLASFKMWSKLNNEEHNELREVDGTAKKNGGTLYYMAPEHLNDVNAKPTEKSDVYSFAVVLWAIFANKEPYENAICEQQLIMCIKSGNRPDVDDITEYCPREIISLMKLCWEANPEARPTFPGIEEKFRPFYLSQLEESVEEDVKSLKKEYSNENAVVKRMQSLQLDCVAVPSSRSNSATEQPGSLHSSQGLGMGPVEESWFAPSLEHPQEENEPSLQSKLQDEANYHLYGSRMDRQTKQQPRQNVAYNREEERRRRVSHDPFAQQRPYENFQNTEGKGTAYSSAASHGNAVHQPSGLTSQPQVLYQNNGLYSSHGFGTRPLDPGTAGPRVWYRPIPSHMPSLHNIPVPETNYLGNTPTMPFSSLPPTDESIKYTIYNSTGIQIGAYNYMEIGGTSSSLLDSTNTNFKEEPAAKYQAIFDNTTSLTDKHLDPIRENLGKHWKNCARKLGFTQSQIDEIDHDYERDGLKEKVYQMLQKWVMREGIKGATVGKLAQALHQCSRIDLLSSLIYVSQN

For one test, the target named is RIPK1 (Homo sapiens (Human), UniProt Q13546). Nature of the test: In vitro kinase assay (Eurofins Kinase Profiler), IC50. Conditions: read-out: RIPK 1 (IC50), 0.001-10 μM.
In another test the test system is HT-29 cells. Nature of the test: Protection against programmed necrosis of HT-29 cells (TNF α/Smac mimetic/Z-VAD-FMK, CCK8). The conditions noted are these: read-out: HT-29 (EC50), TNF α/Smac mimetic/Z-VAD-FMK induced 24 h. As for the experimental part: In vitro protection against programmed necrosis of HT-29 cells was conducted by ourselves.
DMEM medium was purchased from Gibco Inc., penicillin and streptomycin were purchased from HyClone Inc., TNF α was purchased from PeproTech Inc., Smac mimetic and Z-VAD-FMK were purchased from Selleck Inc., CCK8 was purchased from Medchem Express Inc.
HT-29 cells (colon cancer cells) were cultured in DMEM+10% FBS+Penicillin/Streptomycin medium. During the experiments, HT-29 cells in logarithmic growth phase were harvested, seeded in a 96-well plate at specific numbers per well (typically 8×10^3 cells/well of adherent cells) and cultured overnight in a 37° C., 5% CO2 cell culture incubator. The next day, the compounds to be tested were diluted with culture medium to the corresponding concentrations and added into the corresponding wells of a 96-well plate, with 3 replicate wells for each sample, and a Vehicle control group and a blank Control group containing only culture medium were set at the same time. […] The absorbance was measured at 495 nm wavelength using a microplate reader, and the protection rate of the drug on the cells necrosis was calculated according to the following formula:
Protection rate of cell necrosis=[(X−C0)/(C−C0)]×100%
Wherein, C, C0, and X represent the mean absorbance values of the Vehicle control group, Blank control group and Drug treatment group, respectively. […]

By IC50 is commonly meant the point on the concentration scale where inhibition reaches its midpoint. Take `COC(=O)Nc1nc2cc(-c3ccc4c(c3)c(C(=O)N[C@@H](C)c3cccc(F)c3)cn4C)ccn2n1`: the half-inhibitory concentration (IC50) on RIPK1 is 0.01 to 0.1 µM. In the test on HT-29 cells, the EC50 was < 0.001 µM.
